S100A4 MyoIIA: inhibitors of human S100A4 binding to myosin IIA peptide; 0.14% of 360,000 active; P26447; AID 652163; inhibition, % at 10.7 µM; S100A4/TAMRA-MyoIIA peptide fluorescence polarization;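 active = mean inhibition of at least 70% across replicates, with every replicate also reaching that level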
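incubation = readout 5 min after mixing, signal stable up to 60 min | system = S100A4 monomer protein | buffer or medium = HEPES pH 7.2 with CaCl2, KCl, NaCl, DTT, Triton | benchmarks = neutral control DMSO, positive control TFP | also added = fluorescent myosin IIA peptide, 5 nM | compound dosing = one concentration per compound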
PDI inh: blocks human protein disulfide isomerase activity | 0.052% of 350,000 active | P07237 | PDI insulin aggregation turbidity, A650, 90 min | inhibition, % at 10 µM;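 active = mean inhibition across replicates of 30% or more, whatever share of single replicates reach that level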
ERp5 block: blocks human ERp5 reductase activity on insulin. ERp5 insulin aggregation, absorbance 650 nm, 90 min. 0.05% of 350,000 active. Q15084. inhibition, % at 9.99 µM;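 active = mean replicate inhibition above about 25%, with every replicate also reaching it, limit read from the data, passing the limit was not always enough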
SIRT5 inh: inhibitors of human sirtuin-5 desuccinylase. Q9NXA8. AID 652115. inhibition, % at 15 µM. 1.1% of 330,000 active. Purified SirT5, succinyl-peptide AMC, trypsin-coupled fluorescence; in the data active = inhibition above about 15%
Yeast UUG start: modulators of yeast start codon fidelity, primary screen, whole organism, S. cerevisiae, single point, plate reader. S. cerevisiae UUG-firefly luciferase reporter, luminescence/redox ratio. activity score, % at 18.7 µM. actives 0.13% (n = 350,000);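 active = replicate mean at a twofold rise or more, about +100% in these data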;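 note: firefly luciferase made from a UUG start codon reports start codon fidelity; reporter light over untreated wells divided by growth signal over untreated wells; some hits fall short of that in this replicate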
FGF22 binding: FGF22 (human) thermal shift binding. activity (Tm shift, normalised), % at 9.99 µM. 1.5% of 340,000 active. recombinant FGF22 thermal shift, SYPRO orange fluorescence; percent of sucrose octasulfate shift, DMSO zero. Q9HCT0;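 active = mean Tm shift, scaled 0 neutral to 100 positive control, at about 1.3% or above, every replicate too, limit read from the data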
Large screens that a line does not name were inactive; ! = a repeat was not active. This is a sample that favours compounds with a hit; in the whole collection about 2.2% have one here.

Cc1csc(=O)n1CC(=O)OCc1nnc(-c2ccc(Cl)cc2)o1	S100A4 MyoIIA active
CO[C@@H]1CN(C)C(=O)c2cc(NC(=O)c3nc4ccccc4s3)ccc2OC[C@@H](C)N(Cc2cncnc2)C[C@H]1C	none (no result: PDI inh, Yeast UUG start)
CCc1nc2ccc(C(=O)Nc3cc(-c4ccccc4)ccc3OC)cn2c1N(C)Cc1ccc(OC)cc1	none
CCc1nc2ccc(C(=O)Nc3cc(-c4ccccc4)ccc3OC)cn2c1N(C)Cc1nccs1	FGF22 binding 43.4 (no result: SIRT5 inh)
O=C1NCCC12C(=O)Nc1ccccc12 (stereo unspecified)	none (no result: PDI inh, SIRT5 inh)
O=C(O)C1=C2C(=O)Nc3cccc(c32)C2(C1)C(=O)Nc1ccccc12 (stereo unspecified)	SIRT5 inh 34.6
Cc1ccc(S(=O)(=O)Nc2ccc3c(c2)CC(=O)N([C@@H](C)CO)C[C@@H](C)[C@H](CN(C)Cc2ccc(Oc4ccccc4)cc2)O3)cc1	SIRT5 inh 22.5 (no result: PDI inh)
C[C@@H]1CN([C@@H](C)CO)C(=O)Cc2cc(NS(=O)(=O)c3ccc(Cl)cc3)ccc2O[C@@H]1CN(C)Cc1ccc(Oc2ccccc2)cc1	none (no result: PDI inh)
C[C@H]1CN([C@@H](C)CO)C(=O)Cc2cc(NS(=O)(=O)c3ccc(Cl)cc3)ccc2O[C@@H]1CN(C)Cc1ccc(Oc2ccccc2)cc1	SIRT5 inh 17.4 (no result: PDI inh)
C=C(C)c1cccc(C(C)(C)NC(=O)Nc2ccc(OC)cc2)c1	FGF22 binding 43.4
CO[C@@H]1CN(C)C(=O)c2ccc(NC(=O)c3cnccn3)cc2OC[C@@H](C)N(CC2CC2)C[C@@H]1C	none (no result: PDI inh, Yeast UUG start)
C[C@@H]1CCCCO[C@H](CN(C)Cc2ccncc2)[C@H](C)CN([C@H](C)CO)C(=O)c2cc(NC(=O)Nc3ccc(C(F)(F)F)cc3)ccc2O1	none (no result: PDI inh)
Cn1cc(CN2CCC(C(O)c3cccs3)CC2)c(-c2ccccc2F)n1 (stereo unspecified)	none
Cn1cc(CN2CCC(C(=O)N3CCCC3)CC2)c(-c2ccccc2F)n1	FGF22 binding 43.0 (no result: Yeast UUG start)
COc1ccccc1C(=O)NC(=O)CSc1ccc(C)c(C)c1	FGF22 binding 43.0 (no result: SIRT5 inh, Yeast UUG start)
O=C(NC1CCCc2ccccc21)c1ccc([N+](=O)[O-])cc1 (stereo unspecified)	FGF22 binding 43.5
O=C(NC1CCCc2ccccc21)c1ccccc1 (stereo unspecified)	none (no result: Yeast UUG start)
Cc1nc2cc(C(F)(F)F)ccc2n1CCNc1nc(-c2ccc(F)cc2)cs1	none
Cc1ccc(-c2csc(NCCn3c(-c4ccncc4)nc4cc(C(F)(F)F)ccc43)n2)cc1	SIRT5 inh 17.3
COc1cc(/C=C/C(=O)Nc2cccc(S(=O)(=O)N3CCOCC3)c2)ccc1OCC#N	FGF22 binding 4.1
CCNC(=O)C[C@H]1CC[C@H]2[C@H](COc3ccc(NC(=O)Nc4cccc(OC)c4)cc3C(=O)N2C)O1	none (no result: S100A4 MyoIIA, PDI inh, ERp5 block, SIRT5 inh)
O=C(C[C@H]1C[C@@H]2c3cc(NC(=O)C4CCC4)ccc3O[C@@H]2[C@@H](CO)O1)NCc1ccc(-c2ccccc2)cc1	SIRT5 inh 23.0 (no result: PDI inh)
O=C(C[C@H]1C[C@H]2c3cc(NC(=O)Nc4ccccc4)ccc3O[C@H]2[C@H](CO)O1)NCc1ccncc1	none (no result: PDI inh)
O=C(C[C@H]1C[C@H]2c3cc(NC(=O)Nc4ccccc4)ccc3O[C@H]2[C@@H](CO)O1)NCc1ccncc1	SIRT5 inh 17.8 (no result: PDI inh)
O=C(C[C@@H]1C[C@H]2c3cc(NC(=O)Nc4ccccc4F)ccc3O[C@H]2[C@H](CO)O1)NCC(F)(F)F	ERp5 block 84.1!
O=C(C[C@H]1C[C@H]2c3cc(NS(=O)(=O)c4ccc(F)cc4)ccc3O[C@H]2[C@H](CO)O1)NCc1ccc(-c2ccccc2)cc1	SIRT5 inh 17.9 (no result: PDI inh, FGF22 binding)
O=C(C[C@H]1C[C@H]2c3cc(NC(=O)C4CCC4)ccc3O[C@H]2[C@H](CO)O1)NCc1ccc(-c2ccccc2)cc1	none (no result: PDI inh)
O=C(C[C@H]1C[C@H]2c3cc(NC(=O)Nc4ccccc4F)ccc3O[C@H]2[C@@H](CO)O1)NCC(F)(F)F	none (no result: PDI inh)
O=C(C[C@@H]1C[C@H]2c3cc(NS(=O)(=O)c4ccc(F)cc4)ccc3O[C@H]2[C@@H](CO)O1)NCc1ccc(-c2ccccc2)cc1	SIRT5 inh 15.9 (no result: PDI inh, FGF22 binding)
COc1ccc(OC)c(NC(=O)CN=[N+]=[N-])c1	none (no result: PDI inh, Yeast UUG start)
CC(OC(=O)CC1CCCCC1)C(=O)Nc1ccc(F)cc1 (stereo unspecified)	SIRT5 inh 20.7
O=c1[nH]nc(SCc2nc3ccccc3s2)n1C1CC1	FGF22 binding 43.0
CCCn1c(SCc2nc3ccccc3s2)n[nH]c1=O	none (no result: Yeast UUG start)
Cc1ccc(S(=O)(=O)N[C@H]2CC[C@H](CC(=O)NCCCN(C)C)O[C@H]2CO)cc1	none (no result: PDI inh, Yeast UUG start)
COC(=O)C1=C(C)Nc2c(c(=O)n(C)c(=O)n2C)C1c1cccnc1 (stereo unspecified)	none (no result: S100A4 MyoIIA, ERp5 block, SIRT5 inh, FGF22 binding)
COC(=O)C1=C(C)Nc2c(c(=O)n(C)c(=O)n2C)C1c1cccc(O)c1 (stereo unspecified)	SIRT5 inh 20.3
FC(F)(F)c1cnc(C(c2ccccc2)c2ncn[nH]2)c(Cl)c1 (stereo unspecified)	FGF22 binding 43.3
CS(=O)(=O)N(CC(=O)NCCSc1ccccn1)c1ccc(F)cc1	FGF22 binding 43.1 (no result: Yeast UUG start)
COc1ccc(N(CC(=O)NCCSc2ccccn2)S(C)(=O)=O)cc1	none (no result: FGF22 binding)
C[C@H](CO)N1C[C@H](C)[C@H](CN(C)C(=O)Nc2ccccc2)Oc2ncc(C3=CCCCC3)cc2C1=O	none (no result: PDI inh)
C/C=C/c1ccc([C@H]2[C@@H](CNC(=O)c3ccncc3)N(C(C)=O)[C@H]2CO)cc1	none (no result: S100A4 MyoIIA, PDI inh, ERp5 block, SIRT5 inh, FGF22 binding)
Cc1c(C(=O)NC(=S)Nc2ccc(N3CCOCC3)cc2)cccc1[N+](=O)[O-]	FGF22 binding 43.0 (no result: Yeast UUG start)
Cc1ccccc1C(=O)N1CCN(c2ccc(NC(=O)c3ccccc3[N+](=O)[O-])cc2)CC1	SIRT5 inh 19.2 (no result: Yeast UUG start)
CCCOC(=O)c1ccc(NC(=O)c2ccccc2[N+](=O)[O-])cc1	FGF22 binding 43.5 (no result: Yeast UUG start)
Cc1noc(C)c1S(=O)(=O)N(C)C[C@H]1OCCCC[C@H](C)Oc2ccc(NS(=O)(=O)c3ccc(Cl)cc3)cc2C(=O)N([C@H](C)CO)C[C@@H]1C	none (no result: PDI inh)
O=C(C1CCOCC1)N1C[C@H]2[C@@H](c3ccccc31)[C@H](CO)N2C(=O)Cc1ccccc1	none (no result: PDI inh)
Cc1cccc(N2CCN(C(=O)c3ccc4nccnc4c3)CC2C)c1 (stereo unspecified)	FGF22 binding 43.0 (no result: SIRT5 inh)
Cc1cccc(N2CCN(C(=O)CCc3nc4ccccc4[nH]3)CC2C)c1 (stereo unspecified)	SIRT5 inh 16.9 (no result: PDI inh)
Cc1cccc(N2CCN(C(=O)c3ccc4nc(-c5ccco5)c(-c5ccco5)nc4c3)CC2C)c1 (stereo unspecified)	none (no result: S100A4 MyoIIA, ERp5 block, SIRT5 inh, FGF22 binding)

Source: PubChem BioAssay (Broad Institute)
